{
  "sequences": {"note": "Amino acid sequences for entries named in this document (tags omitted). Chains listed by the source or under a name are the forms on record and can include a tag or linker. Residues count along the entry.", "UniProt Q99705, 1-353 with tags or gaps": "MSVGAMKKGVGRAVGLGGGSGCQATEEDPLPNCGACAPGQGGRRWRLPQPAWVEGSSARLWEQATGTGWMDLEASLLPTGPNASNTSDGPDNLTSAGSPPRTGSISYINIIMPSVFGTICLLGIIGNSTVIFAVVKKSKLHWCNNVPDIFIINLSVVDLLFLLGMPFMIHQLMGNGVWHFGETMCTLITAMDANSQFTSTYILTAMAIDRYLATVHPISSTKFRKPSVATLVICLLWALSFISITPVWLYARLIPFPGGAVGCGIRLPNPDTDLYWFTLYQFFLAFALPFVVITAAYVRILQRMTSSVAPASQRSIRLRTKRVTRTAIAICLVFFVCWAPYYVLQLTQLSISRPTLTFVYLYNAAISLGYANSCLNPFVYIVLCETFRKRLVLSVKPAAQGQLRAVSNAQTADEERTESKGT"},
  "source": "BindingDB's records for 16690315",
  "molecular_target": "Melanin-concentrating hormone receptor 1 (Homo sapiens, UniProt Q99705)",
  "experiment": "Binding affinity to human MCHR1 assessed as inhibition of MCH-mediated calcium ion influx by FLIPR assay",
  "note": "Some compounds may have been tested in ways that are not shown here.",
  "data": [
    {"smiles": "N#Cc1cccc(-c2ccc(N(C(=O)Nc3cc(Cl)cc(Cl)c3)C3CCN(C4CCCC4)CC3)cc2)c1", "values": [
      {"measurement": "Ki", "value": 2.5, "unit": "nM"}
    ]}
  ]
}
